From US8063093B2, “Potassium channel blockers and uses thereof” (priority 2005, dated 2011) come the findings set out here.

By UniProt entry, the sequences of proteins in these tests, tags left out.
UniProt P16390, whole entry: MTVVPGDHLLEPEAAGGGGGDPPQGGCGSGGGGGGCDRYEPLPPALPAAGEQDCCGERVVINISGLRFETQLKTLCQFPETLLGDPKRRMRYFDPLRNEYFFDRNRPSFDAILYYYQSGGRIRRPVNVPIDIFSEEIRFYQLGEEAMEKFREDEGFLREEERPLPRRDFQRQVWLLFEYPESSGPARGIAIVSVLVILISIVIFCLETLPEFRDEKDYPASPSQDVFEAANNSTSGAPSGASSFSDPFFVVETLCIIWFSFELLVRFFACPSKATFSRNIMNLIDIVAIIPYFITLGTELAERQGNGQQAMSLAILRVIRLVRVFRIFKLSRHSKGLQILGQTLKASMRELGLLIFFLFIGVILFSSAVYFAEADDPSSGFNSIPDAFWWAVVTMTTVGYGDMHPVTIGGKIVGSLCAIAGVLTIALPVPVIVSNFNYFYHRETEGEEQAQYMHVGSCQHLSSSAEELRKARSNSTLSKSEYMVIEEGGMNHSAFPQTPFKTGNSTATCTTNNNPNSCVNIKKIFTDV

As usually defined, the EC50 is the midpoint of the concentration-response curve.

Like-named read-outs stand apart in the source and are kept apart here. A value given as a limit tells only on which side of the number the result lay.

This test deals with Kv1.3 (L929 cells stably expressing mKv1.3 or activated human T cells) (Mus musculus, UniProt P16390). Nature of the test: Kv1.3 current blockade, whole-cell patch-clamp. The conditions noted are these: read-out: EC50 (nM) blockade, bounds given in uM.
[1] abbreviates: Table 8, compounds of formula I.

For `COc1c2ccoc2c(OCCOc2ccccn2)c2oc(C)cc(=O)c12`, the EC50 (Table 13, compounds of formula VI) is over 10000 nM.

In the case of `COc1c(C(C)=O)c(O)c(OCc2cccc(C(=O)O)c2)c2occc12`, the EC50 under setting [1] was over 10000 nM.

As for `COc1c(C(C)=O)c(O)c(OCc2ccc(C(=O)c3ccccc3)cc2)c2occc12`, the EC50 under setting [1] was over 10000 nM.
